## Antibody variant affinities, Ab-14 heavy chain, assay B

Target peptide (SARS-CoV-2 spike, HR2 region): PDVDLGDISGINAS

Each scFv is VH, the linker GGGGSGGGGSGGGGS, VL, as in the parent Ab-14, and differs from it in the CDRs of the heavy chain only.
VH: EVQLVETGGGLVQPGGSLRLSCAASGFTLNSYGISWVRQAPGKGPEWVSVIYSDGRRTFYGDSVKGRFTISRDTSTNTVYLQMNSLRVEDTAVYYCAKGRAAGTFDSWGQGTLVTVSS
VL: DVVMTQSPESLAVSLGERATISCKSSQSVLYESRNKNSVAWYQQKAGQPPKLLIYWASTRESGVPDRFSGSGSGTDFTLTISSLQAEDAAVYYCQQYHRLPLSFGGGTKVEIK

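The parent was found by panning a naive human phage display library on the peptide. This is the validation round: designs drawn from the data on random variants, tested in the same kind of assay. Several design methods are mixed in this list. Affinity was read by AlphaSeq, a pooled yeast mating assay with surface-displayed partners. The frequency of each diploid, read from paired DNA barcodes, reflects how well the two displayed proteins bind. Scores were corrected for input abundance and mapped to Kd with protein pairs of known affinity run in the same pool. Mating was done six times.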

Positions count from residue 1 of the parent VH; F59A puts A in place of F.
This list holds designs with at most six substitutions.
The read-out is the apparent dissociation constant on a log10 scale (nM): the lower, the stronger.
A mean of the replicates is given; it leaves out those without a signal.
Where no diploid with the target was found in any replicate, the entry reads "nd": below detection, most likely a poor binder, though not proof of it.

changes,"log10 Kd (nM), mean",replicates with signal,signal with controls
F59A/R100Y,1.01,6/6,0/18
T28D/S31E/S53A/G61A/R100N,0.28,6/6,0/18
T28A/S31E/G61S/R100K,0.51,6/6,0/18
T28E/G61A/R100T,0.88,6/6,0/18
T28N/G61A/S63H/A101T,1.94,2/6,1/18
T28S/G61V/S63N/R100N,0.48,3/6,0/18
T28S/S31M/G61I/R100E,1.35,1/6,0/18
T28G/S31E/G61S/A101Q,-0.14,6/6,0/18
T28W/S31D/F59M/A101Q,1.35,2/6,0/18
S31D/R100P/A101E,nd,0/6,0/18
S31E/G61T/R100K/A101Q,0.27,6/6,1/18
R100K/A101M/S107T,1.37,6/6,0/18
T28D/S31E/F59M/A101Q,0.68,6/6,0/18
T28D/S31D/R100Q,0.26,6/6,0/18
T28S/S63R/R100Q/A101T,0.75,1/6,0/18
A102C/F105M,nd,0/6,0/18
G61A/G99I/A101E/G103C,nd,0/6,2/18
T28Q/S31D/A101K/D106I,1.77,3/6,0/18
T28N/G61V,1.29,3/6,0/18
S53A/R56W/G61E,1.22,6/6,1/18
T28P/S31E/S53A/R100H,0.53,6/6,0/18
T28A/G61L,0.66,6/6,0/18
T28D/R100Q/A101I,0.96,5/6,0/18
T28D/S31E/A101T/S107K,-0.12,6/6,0/18
R56Q/A101T/S107T,0.99,6/6,0/18
S31E/Y52W/G103W/D106H,nd,0/6,0/18
T28D/S31E/S53A/G61A/R100K/S107V,-0.76,6/6,1/18
T28E/G61S/S63H/R100K/A101T,0.67,6/6,0/18
T28D/G61C/R100K/A101T,0.70,6/6,0/18
T28A/S31E/R56K/A101T,-0.30,6/6,2/18
S31E/T58P/G61T/D62N/A101F,nd,0/6,0/18
T28S/S31E/G61T/S63A/A101F,0.43,6/6,0/18
K65R/R100A,0.85,3/6,0/18
T28E/S53A/G61A/R100Q,-0.34,6/6,0/18
T28S/S31N/R100Q,0.49,6/6,2/18
T58G/F59A/R100Y/S107T,nd,0/6,0/18
T28S/G61H/R100E/A101V,0.06,6/6,0/18
T28D/G61H/R100M,0.31,6/6,0/18
F27E/K65E/A101Q/D106S,nd,0/6,0/18
T28E/G61A/R100D,0.47,6/6,0/18
R56K/A101E/S107T,0.28,6/6,0/18
S31E/T58W/G61T/A101F/A102H,nd,0/6,0/18
T28E/S31E/F59Q/G61I,0.74,6/6,1/18
T28D/A101M/D106E,1.70,6/6,0/18
T28E/R56W/G61T/A101Q,1.93,5/6,0/18
T28D/A101T/T104S/D106K,nd,0/6,1/18
T28D/S63D/R100N/S107K,0.18,6/6,0/18
T28W/S31E/G61H/S107A,0.79,6/6,0/18
R56L/F59S/R100S,1.65,3/6,0/18
F27H/T28N/K65R/D106P,nd,0/6,0/18
T28D/S31E/R100N,0.47,6/6,1/18
T28S/R100K/A101E,-0.05,6/6,0/18
T28S/S31E/R56H/G61S,-0.34,6/6,3/18
T28S/G61T/R100M/A101E,-0.14,6/6,0/18
G61A/S63N/R100K/S107V,1.17,6/6,0/18
S31D/D106W/S107Q,nd,0/6,0/18
S31E/G61T/A101F/D106E,1.85,2/6,1/18
S31E/G61S/R100K/A101P,1.80,5/6,1/18
S31D/F59Q/G61I/D106R,nd,0/6,0/18
T28N/S31E/S53A/G61S/R100E/S107E,-0.29,6/6,0/18
T28N/S53A/G61V/R100K,0.03,6/6,0/18
T28E/G61V/R100H/S107L,0.76,5/6,0/18
T28E/G61A/R100S,0.05,6/6,0/18
T28E/R100Q/A101V,0.76,6/6,0/18
T28D/R56K/R100H/S107L,0.30,6/6,0/18
T28D/S31E/R56K/A101T,nd,0/6,0/18
S31D/G33L/S35E/G103L/D106I,nd,0/6,0/18
T28E/N30F/A101V/S107L,-0.72,1/6,0/18
T28H/D106E,nd,0/6,0/18
T28S/G61K/R100T,0.18,5/6,0/18
T28H/S53A/F59Q,nd,0/6,0/18
G61K/S107W,1.26,4/6,0/18
T28Q/S31Q/G61S/T104H,nd,0/6,0/18
T28D/G61S/R100E/A102G,1.73,6/6,0/18
T104R/F105Y,nd,0/6,0/18
S31D/G103V/S107G,nd,0/6,0/18
F27E/G61N,nd,0/6,0/18
R56L/G61A/R100K/A101V,1.25,4/6,0/18
T58V/F59A/D62R/F105N,2.82,1/6,0/18
T28D/G61V/R100L/A101N,-0.05,6/6,0/18

Extract of 7 entries:

changes	log10 Kd (nM), mean	replicates with signal	signal with controls
S31D/D106W/S107Q	nd	0/6	0/18
T28D/R100Q/A101I	0.96	5/6	0/18
S31D/R100P/A101E	nd	0/6	0/18
T28S/S63R/R100Q/A101T	0.75	1/6	0/18
T28H/S53A/F59Q	nd	0/6	0/18
T28S/G61H/R100E/A101V	0.06	6/6	0/18
T28N/G61V	1.29	3/6	0/18

As a blank, each scFv also met three strains without target: over all heavy chain designs, 1% of these pairings were detected, typically at 2.08 and seldom below 0.84. For each scFv, signals with the empty controls are counted beside the result.
The authors averaged sequences with at least three values out of six and counted those with two or fewer as poor binders.
The range of this assay differs from that of the first round, and the authors advise against merging the two.

Data: MIT Lincoln Laboratory AlphaSeq set, Li et al. 2023, doi:10.1038/s41467-023-39022-2, as distributed in FLAb.